From ChEMBL document CHEMBL5108017

System: Mus musculus
Experiment: Antinociceptive activity in acute pain model of mouse when administered orally measured by paw pressure test
Conditions: route po

For `CCN1CC2(CCN(CCc3cc(F)ccc3F)CC2)O[C@H](C)C1=O`, the ED50 was 14 mg/kg.
